Laboratory results: patent US7709538B2, “ST104P, an anti-angiogenic agent” (Sagittarius Life Science Corp., priority 2004, dated 2010)
pIC50: −log10 of the molar value.

Columns and labels:
EA.hy926 cells = details: EA.hy926, 48 h
[1] = read-out: IC50 (proliferation / cytotoxicity), molar equivalent, 48 h, conversion of 500 μg/ml

tetrameric cyclic compound of 4,5-dihydroxynaphthalene-2, 7, disulfonic acid linked by methylene bridges [ST104P]
> 500 µg/mL: IC50 (proliferation / cytotoxicity) (BAEC; 48 h, crystal violet) | IC50 (proliferation / cytotoxicity) (EA.hy926 cells; crystal violet) | IC50 (proliferation / cytotoxicity) (3T3 cells; 48 h, crystal violet)
< 3.46: pIC50 (BAEC; [1]) | pIC50 (EA.hy926 cells; read-out: IC50 (proliferation / cytotoxicity), molar equivalent, conversion of 500 μg/ml) | pIC50 (3T3 cells; [1])
